In patent publication US20260295054A1, “GLUCAGON-LIKE PEPTIDE-1 RECEPTOR AGONIST VARIANTS AND METHODS THEREOF” (Neuraly, Inc., priority 2023, published 2026):

Tested on: CD4+ T cell (CD8+ T cell depleted PBMCs)
Experiment: Ex vivo T-cell proliferation assay
Type: cell-based, human
Details: donors positive on at least one time point

Herceptin: low immunogenicity control
% Response: 8%
